Test results: ChEMBL document CHEMBL6103561, “Chemical dissection of selective myeloid leukemia-1 inhibitors: How they were found and evolved” (Eur J Med Chem, 2025)

Chains of the proteins cited; added tags and fusions are not shown.
UniProt P10415, whole entry: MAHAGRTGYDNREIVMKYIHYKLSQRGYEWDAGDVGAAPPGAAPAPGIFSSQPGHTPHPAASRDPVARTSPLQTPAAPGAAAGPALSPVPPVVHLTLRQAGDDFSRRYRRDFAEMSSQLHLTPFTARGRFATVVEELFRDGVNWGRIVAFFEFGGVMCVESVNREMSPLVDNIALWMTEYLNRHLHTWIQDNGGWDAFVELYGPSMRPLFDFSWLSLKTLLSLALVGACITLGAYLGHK

Columns and labels:
[1] = target: Apoptosis regulator Bcl-2 (Homo sapiens, UniProt P10415)
HL-60 = assay: Cytotoxicity against human HL-60 cells assessed as reduction in cell viability incubated for 48 hrs by CCK-8 assay; conditions: HL-60, 48 h
RS4-11 = assay: cells; conditions: Homo sapiens, RS4-11, 48 h

SMILES | Ki [1] | IC50 (HL-60) | IC50 (RS4-11)
Cc1cc2c(C(=O)NC[C@@H](C)c3ccccc3)c(O)c(O)cc2c(O)c1-c1c(C)cc2c(C(=O)NC[C@H](C)c3ccccc3)c(O)c(O)cc2c1O | 0.32 µM | – | –
COc1ccc(Oc2ccc(C)cc2-c2ccsc2S(=O)(=O)NCCNC(=O)Nc2cc(C(F)(F)F)cc(C(F)(F)F)c2)cc1OC | – | 5.3 µM | 5.6 µM
